The numbers were not newly measured in article PMC10406941 (Scientific Reports, 2023), which cites them from elsewhere.

Chains of the proteins cited; added tags and fusions are not shown. Lines headed by an entry give the natural chain unless they say otherwise; changes in a name come on top.
UniProt Q5U3Y7, whole entry: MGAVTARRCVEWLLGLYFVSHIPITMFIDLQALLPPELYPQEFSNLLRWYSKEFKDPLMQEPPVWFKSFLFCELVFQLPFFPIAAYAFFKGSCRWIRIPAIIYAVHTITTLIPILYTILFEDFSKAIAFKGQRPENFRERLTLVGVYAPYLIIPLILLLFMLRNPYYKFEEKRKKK
UniProt Q60492, whole entry: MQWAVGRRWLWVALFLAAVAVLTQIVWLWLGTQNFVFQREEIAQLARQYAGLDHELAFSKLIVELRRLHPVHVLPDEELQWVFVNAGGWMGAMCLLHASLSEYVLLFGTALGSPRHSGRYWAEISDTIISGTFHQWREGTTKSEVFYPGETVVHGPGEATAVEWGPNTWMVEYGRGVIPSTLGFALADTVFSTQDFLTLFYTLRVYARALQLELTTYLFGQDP

One series concerns the target S2R (Rattus norvegicus, UniProt Q5U3Y7). Particulars: read-out: Ki nM S2R, [3H]-DTG, rat liver, masking with (+)-Pentazocine, cited from earlier work.
A further series addresses S1R (Cavia porcellus, UniProt Q60492). Particulars: read-out: Ki nM S1R, [3H]-(+)-Pentazocine, guinea pig brain, cited from earlier work.

Read-outs that look alike come from different tables or passages of the source.

Turning to `COc1ccc([C@H]2CC[C@H](CCCN3CCN(C4CCCCC4)CC3)CC2)cc1` (relative stereo), the Ki is 1.21 nM on S2R (Table 3) and 0.23 nM on S1R (Table 3).

On to `c1ccc([C@H]2CC[C@@H](CCCN3CCN(C4CCCCC4)CC3)CC2)cc1` (relative stereo), for which the Ki on S2R (Table 3) was 3.66 nM; on S1R (Table 3), 0.042 nM.

`c1ccc([C@H]2CC[C@H](CCCN3CCN(C4CCCCC4)CC3)CC2)cc1` (relative stereo): the inhibition constant (Ki) on S2R (Table 3) was 4.77 nM; at S1R (Table 3) it was 0.045 nM.

On to `COc1cccc(OC)c1[C@H]1CC[C@@H](CCCN2CCN(C3CCCCC3)CC2)CC1` (relative stereo), for which the figures for the Ki at S2R (Table 3) and on S1R (Table 3) were 7.92 nM and 0.26 nM, respectively.

Regarding `O=C1COc2cccnc2N1CCCN1CCN(C2CCCCC2)CC1`, the values for the Ki on S2R (Table 3) and at S1R (Table 3) were 16 nM and 12 nM, respectively.

Turning to `COc1cccc(OC)c1[C@H]1CC[C@H](CCCN2CCN(C3CCCCC3)CC2)CC1` (relative stereo), the Ki at S2R (Table 3) was 0.21 nM; at S1R (Table 3), 0.32 nM.

Turning to `COc1ccc([C@H]2CC[C@@H](CCCN3CCN(C4CCCCC4)CC3)CC2)cc1` (relative stereo), the figures for the Ki at S2R (Table 3) and at S1R (Table 3) were 1.59 nM and 0.81 nM, respectively.

For `C1CCC(CCCN2CCN(C3CCCCC3)CC2)CC1`, the Ki on S2R (Table 3) was 4.7 nM.

For `COc1cc2c(cc1OC)CN(CCCN1CCCc3c(OC)cccc31)CC2`, the Ki was 1.42 nM at S2R (Table 2) and 3990 nM on S1R (Table 2).

A word on the Ki: it is the equilibrium dissociation constant of an inhibitor or competing ligand from its target.
